From patent publication US20150011740A1, “FLUORINE-CONTAINING WATER SOLUBLE PLATINUM COMPLEXES FOR TUMOR TREATMENT AND PROCESS OF PREPARING SAME” (GUDUI BIOPHARMA TECHNOLOGY INC., priority 2011, published 2015) come the findings set out here.

The conditions of the series: buffer, pH 7.

“diisopropylamino platinum (II) (1-O-D-glucoside-ethane-2-fluoro-2,2-dicarboxylate) [Example 25]”: the Half-life amounted to 96 h.
